Protein sequences, listed by entry. Tags and fused reporters are not part of them.
UniProt P35218, whole entry, looked up: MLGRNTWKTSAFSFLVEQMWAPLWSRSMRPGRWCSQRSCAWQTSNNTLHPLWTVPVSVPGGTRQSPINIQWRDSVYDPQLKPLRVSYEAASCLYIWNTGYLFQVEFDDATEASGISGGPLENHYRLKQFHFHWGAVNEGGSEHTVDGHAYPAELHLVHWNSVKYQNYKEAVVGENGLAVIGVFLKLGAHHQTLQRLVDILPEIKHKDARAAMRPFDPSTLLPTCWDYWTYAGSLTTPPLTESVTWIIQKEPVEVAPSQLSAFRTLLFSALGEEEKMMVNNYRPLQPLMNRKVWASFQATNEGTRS
UniProt P22748, whole entry, looked up: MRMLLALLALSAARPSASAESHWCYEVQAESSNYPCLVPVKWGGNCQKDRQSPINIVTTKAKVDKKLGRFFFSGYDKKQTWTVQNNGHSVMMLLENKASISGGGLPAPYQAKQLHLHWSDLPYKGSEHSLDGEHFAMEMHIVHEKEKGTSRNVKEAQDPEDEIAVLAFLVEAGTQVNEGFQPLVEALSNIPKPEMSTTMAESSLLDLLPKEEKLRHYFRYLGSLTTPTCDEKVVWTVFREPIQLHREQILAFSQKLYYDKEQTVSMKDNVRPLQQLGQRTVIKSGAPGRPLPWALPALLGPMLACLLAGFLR
UniProt P00915, whole entry, looked up: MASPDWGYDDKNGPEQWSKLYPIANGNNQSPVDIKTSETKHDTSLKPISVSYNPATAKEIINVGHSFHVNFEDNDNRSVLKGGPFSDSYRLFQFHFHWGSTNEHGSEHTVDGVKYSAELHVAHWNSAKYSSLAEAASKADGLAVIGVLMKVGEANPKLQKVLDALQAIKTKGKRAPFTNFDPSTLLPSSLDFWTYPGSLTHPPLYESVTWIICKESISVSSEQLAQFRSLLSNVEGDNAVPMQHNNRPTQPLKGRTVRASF

In BindingDB's records for 15780631 (Universit&#224, 2005):

Columns and labels:
Carbonic anhydrase 2 = Carbonic anhydrase 2 (Homo sapiens, UniProt P00918); assay: Inhibitory constant against human isozymes carbonic anhydrase II for the CO2 hydration reaction at 20 C
Carbonic anhydrase 9 = Carbonic anhydrase 9 (Homo sapiens, UniProt Q16790); assay: Inhibitory constant against human isozymes carbonic anhydrase IX for the CO2 hydration reaction at 20 C
[1] = target: Carbonic anhydrase 5A, mitochondrial (Homo sapiens, UniProt P35218); assay: Inhibitory constant against human isozymes carbonic anhydrase V for the CO2 hydration reaction at 20 C
Carbonic anhydrase 4 = Carbonic anhydrase 4 (Homo sapiens, UniProt P22748); assay: Inhibitory constant against human isozymes carbonic anhydrase IV for the CO2 hydration reaction at 20 degree C
Carbonic anhydrase 1 = Carbonic anhydrase 1 (Homo sapiens, UniProt P00915)

SMILES	Ki (Carbonic anhydrase 2) [mM]	Ki (Carbonic anhydrase 9) [mM]	Ki [1] [mM]	Ki (Carbonic anhydrase 4) [mM]	Ki (Carbonic anhydrase 1) [mM]
N#[C][AgH][C]#N	0.76	0.33	1.75	97	0.5
N#[C][AuH][C]#N	0.58	31.3	1.91	5.36	–
N#[C][CuH][C]#N	0.56	4.77	0.79	–	–
